The values below are quoted from earlier work in patent US9808500B2, “Antithrombotic nanoparticle” (Washington University, priority 2009, dated 2017).

For the data set, the target named is thrombin (Homo sapiens, UniProt P00734). The note with it: thrombin inhibitor, quoted; cited from earlier work.

Take `Cc1nc(N)ccc1CNC(=O)Cn1c(C)cnc(NCCc2ccccc2)c1=O`: the inhibition constant Ki was 0.8 nM.

One may read the Ki as the dissociation constant of the complex between target and ligand, obtained from inhibition or displacement.
